Laboratory results published in patent US20240299353A1, “COMPOSITIONS AND METHODS FOR TREATING […] 5-MEO-DMT” (Alvarius Pharmaceuticals Ltd., priority 2021, published 2024).

What was measured:
Assay type in all cases: in vivo, Male Wistar rats
[1] = tested on: pCREB; assay: Western blot of pCREB in brain regions, chronic cocaine ± 5-MeO-DMT; details: for pCREB levels: cocaine
Experimental: (§1) Male Wistar rats aged 7 weeks were acclimatized to the facility for 1 week prior to the beginning of the study. Animals were administered cocaine hydrochloride (15 mg/kg, Sigma) or saline by i.p. injection once daily for 7 days. For the subsequent 7 days animals receiving cocaine were administered a higher dose 20 mg/kg i.p. to encapsulate the increased drug use seen following prolonged drug use in human addicts (Piazza, P. V. & V. Deroche-Gamonet (2013) A multistep general theory of transition to addiction. Psychopharmacology, 229, 387-413). One-hour post last cocaine animals received a vehicle, low (10 mg/kg) or high (20 mg/kg) dose of 5-MeO-DMT (CarboSynth). Animals were euthanized 23- or 119-hours following vehicle or 5-MeO-DMT administration.
(§2) Following euthanasia brain regions of interest were isolated. Briefly, the olfactory bulbs were removed before the brain was placed in a rat brain matrix (FIG. 2A). Sterile blades were inserted at positions 2 and 3 (FIG. 2B) to extract a coronal slice containing the Bregma+˜0.2-+˜2.2 coordinates (FIG. 2C). From this tissue slice a blunted 12 G needle was used to punch dissect the NAc and dorsal striatum (DS) (FIG. 2D-2E) identified using the rat brain atlas (Panxinos and Watson 2nd edition). The PFC, hippocampus (Hip) and amygdala (Amyg) were then blunt dissected (FIG. 3A-3D). All regions were frozen in liquid nitrogen and stored at −80° C. until processed.
(§3) There were 12 treatment groups arising from this study each comprised of 6 animals, they were as follows; saline+vehicle, saline+10 mg/kg 5-MeO-DMT, saline+20 mg/kg 5-MeO-DMT, cocaine+vehicle, cocaine+10 mg/kg 5-MeO-DMT and cocaine+20 mg/kg 5-MeO-DMT for 24- and 120-hours post cocaine/saline. These treatment groups were used for the molecular assessment of addiction-linked markers. Hippocampal protein from the treatment groups saline+vehicle, saline+10 mg/kg 5-MeO-DMT, saline+20 mg/kg 5-MeO-DMT, cocaine+vehicle, cocaine+10 mg/kg 5-MeO-DMT and cocaine+20 mg/kg 5-MeO-DMT collected 24 hours after the last cocaine/saline exposure were further analyzed by mass spectrometry.
Determination of protein concentration—a bicinchoninic acid assay (BCA, ThermoFisher) was conducted to determine the total protein concentration in tissue lysates following manufacturer's instructions. […] For tissue lysates a 1:10 dilution was performed with cell lysis buffer to ensure absorbance values lay within the working range established by the standards. […] The plate was covered and incubated for 30 mins at 37° C. before absorbance was read at 562 nm on a plate reader (SpectraMax M3). The absorbance values were used to form a standard curve of known protein concentrations and protein concentration of samples were derived using the equation of the line. […]

[2] = tested on: ΔFosB; assay: Western blot of ΔFosB in brain regions, chronic cocaine ± 5-MeO-DMT
Experimental: as §1, §2, §3
(§4) Determination of protein concentration—a bicinchoninic acid assay (BCA, ThermoFisher) was conducted to determine the total protein concentration in tissue lysates following manufacturer's instructions. Briefly, bovine serum albumin (BSA) standards were prepared in a serial dilution (0-2.0 mg protein/ml) and 200 μl working reagent (50:1, reagent A: reagent B) was added to each of the standards and samples in a 96 well plate (Greiner). For tissue lysates a 1:10 dilution was performed with cell lysis buffer to ensure absorbance values lay within the working range established by the standards. All samples and standards were added in duplicate. The plate was covered and incubated for 30 mins at 37° C. before absorbance was read at 562 nm on a plate reader (SpectraMax M3). The absorbance values were used to form a standard curve of known protein concentrations and protein concentration of samples were derived using the equation of the line. All samples were standardized to the lowest protein concentration using distilled H20 (dH2O).
(§5) SDS-PAGE and Western Blotting—Following equalisation of protein concentrations, 6× sample loading buffer (15% SDS, 15% […], 50% glycerol, 0.01% bromophenol blue, […]) was added to each sample using a dilution factor of 1:5 of the total volumes before boiling at 100° C. for 5 mins. Samples were stored at −20° C. until use. One dimensional sodium-dodecyl-sulphate polyacrylamide gel electrophoresis (SDS-PAGE) was used for protein separation based on molecular weight. The percentage of acrylamide in the resolving or stacking gel was determined by the molecular weight of the protein of interest. In this instance all gels consisted of a 5% stacking gel and a 10% resolving gel with the exception of mGluR5, G9a (8%) and H3K9Me2 (12%). 20 μg of protein was loaded and resolved using SDS-PAGE. […]

[3] = tested on: FosB; assay: Western blot of FosB in brain regions, chronic cocaine ± 5-MeO-DMT
Experimental: as §1, §2, §3
as §4, with “All samples were standardized to the lowest protein concentration using distilled H20 (dH2O).” left out
SDS-PAGE and Western Blotting—Following equalisation of protein concentrations, 6× sample loading buffer (15% SDS, 15% […], 50% glycerol, 0.01% bromophenol blue, […]) was added to each sample using a dilution factor of 1:5 of the total volumes before boiling at 100° C. for 5 mins. […] The percentage of acrylamide in the resolving or stacking gel was determined by the molecular weight of the protein of interest. […]

[4] = tested on: G9a; assay: Western blot of G9a in brain regions, chronic cocaine ± 5-MeO-DMT
Experimental: as §1, §2, §3, §4, §5

[5] = tested on: BDNF; assay: Western blot of BDNF in brain regions, chronic cocaine ± 5-MeO-DMT; details: hippocampus
Experimental: as §1
(§6) Following euthanasia brain regions of interest were isolated. […]
as §3, with “These treatment groups were used for the molecular assessment of addiction-linked markers.” left out, “spectrometry. […]” for “spectrometry.”

[6] = tested on: mGluR5; assay: Western blot of mGluR5 in brain regions, chronic cocaine ± 5-MeO-DMT; details: nucleus accumbens, 24 h, two-way ANOVA p=0.0450, does not survive post hoc
Experimental: as §1, §6
as §3, with “These treatment groups were used for the molecular assessment of addiction-linked markers.” left out, “spectrometry. […]” for “spectrometry.”

[7] = nucleus accumbens, 24 h, cocaine+vehicle (14 daily i.p. injections)
[8] = nucleus accumbens, 120 h, cocaine+vehicle

COC(=O)[C@H]1[C@@H](OC(=O)c2ccccc2)C[C@@H]2CC[C@H]1N2C.Cl [cocaine, cocaine hydrochloride, reference compound]
pCREB levels ([1]; PFC, 24 h, p=0.0048): significant effect | proportion of pCREB relative to total CREB ([1]; PFC, 24 h and 120 h, all treatments): no change | pCREB levels ([1]; PFC, 120 h, p=0.0259): significant effect | proportion of pCREB ([1]; amygdala, 24 h and 120 h, any of the treatments): unchanged by any of the treatments | ΔFosB expression ([2]; PFC, 24 h, cocaine alone or 5-MeO-DMT alone): Neither treatment changes expression alone | ΔFosB expression ([2]; PFC, 120 h, cocaine, two-way ANOVA p=0.0144, no post hoc differences): significant cocaine effect | ΔFosB expression ([2]; amygdala, 24 h, cocaine+vehicle): increase in expression | ΔFosB expression ([2]; amygdala, 120 h, cocaine): no cocaine-induced increase | ΔFosB expression ([2]; dorsal striatum, 24 h, cocaine+vehicle relative to control): significant increase in ΔFosB expression | ΔFosB expression [2, 7]: increases the expression | ΔFosB expression [2, 8]: basal expression levels were re-established | FosB expression ([3]; PFC, 24 h and 120 h, any of the treatments): unchanged by any of the treatments | FosB expression ([3]; amygdala, 24 h, any treatment): no change in FosB levels | FosB expression ([3]; dorsal striatum, 24 h, repeated cocaine, two-way ANOVA, no post hoc differences): significant effect | FosB expression [3, 7]: increases the expression | FosB expression [3, 8]: basal expression levels were re-established | G9a expression ([4]; PFC, 24 h, cocaine+vehicle relative to saline+vehicle): significant decrease in G9a expression | G9a expression ([4]; PFC, 120 h, cocaine, two-way ANOVA p=0.0187, no post hoc differences): significantly affects expression levels | G9a expression ([4]; dorsal striatum, 24 h, cocaine): increased the expression | G9a expression ([4]; dorsal striatum, 120 h, cocaine): no change present | G9a expression ([4]; hippocampus, 24 h, cocaine): reduced | G9a expression ([4]; hippocampus, 120 h, cocaine): no change present | BDNF expression ([5]; 24 h, any of the treatment groups): no change in BDNF expression | BDNF levels ([5]; 120 h, cocaine+vehicle): significant decrease in BDNF levels | mGluR5 expression [6]: significant cocaine effect
